The list shows a part of the results, in another mix than the full data. Activity calls are given as the source filed them. How the source made its calls: active means hit-call score of the fitted dose curve at least 0.9, where 1 is the maximum; inactive means score below 0.9.
Tests used:
Settings in all cases: actives raise or lower the signal; mRNA level, 48 h
CYP2E1 (gene 1571) = experiment: LTEA_HepaRG_CYP2E1: Life Technologies and Expression Analysis (LTEA) Assay for CYP2E1 using HepaRG (AID 2283485)
Method in brief: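 Human liver line HepaRG, plated 48 h, then serum-free induction medium + chemical x 48 h; 8-pt CRC from 100 uM, half-log, 0.5% DMSO, n=2. Readout: CYP2E1 mRNA qRT-PCR vs ACTB/GAPDH/POLR2A; bidirectional fit vs DMSO.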

By UniProt entry, the sequences of proteins in these tests, tags left out.
UniProt P08684, whole entry: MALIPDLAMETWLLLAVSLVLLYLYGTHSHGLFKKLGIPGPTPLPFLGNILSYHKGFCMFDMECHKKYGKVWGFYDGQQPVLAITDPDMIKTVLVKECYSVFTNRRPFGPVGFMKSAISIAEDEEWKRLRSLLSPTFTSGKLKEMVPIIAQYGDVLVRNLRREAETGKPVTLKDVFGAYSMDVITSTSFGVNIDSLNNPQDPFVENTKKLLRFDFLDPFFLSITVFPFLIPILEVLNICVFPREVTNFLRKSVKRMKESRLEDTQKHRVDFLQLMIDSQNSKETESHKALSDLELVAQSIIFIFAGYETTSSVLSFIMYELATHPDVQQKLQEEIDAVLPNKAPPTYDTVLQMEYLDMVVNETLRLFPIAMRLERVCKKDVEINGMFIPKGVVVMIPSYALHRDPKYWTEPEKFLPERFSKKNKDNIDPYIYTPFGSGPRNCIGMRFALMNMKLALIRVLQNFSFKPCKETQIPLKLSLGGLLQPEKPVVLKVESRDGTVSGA
UniProt P24462, whole entry: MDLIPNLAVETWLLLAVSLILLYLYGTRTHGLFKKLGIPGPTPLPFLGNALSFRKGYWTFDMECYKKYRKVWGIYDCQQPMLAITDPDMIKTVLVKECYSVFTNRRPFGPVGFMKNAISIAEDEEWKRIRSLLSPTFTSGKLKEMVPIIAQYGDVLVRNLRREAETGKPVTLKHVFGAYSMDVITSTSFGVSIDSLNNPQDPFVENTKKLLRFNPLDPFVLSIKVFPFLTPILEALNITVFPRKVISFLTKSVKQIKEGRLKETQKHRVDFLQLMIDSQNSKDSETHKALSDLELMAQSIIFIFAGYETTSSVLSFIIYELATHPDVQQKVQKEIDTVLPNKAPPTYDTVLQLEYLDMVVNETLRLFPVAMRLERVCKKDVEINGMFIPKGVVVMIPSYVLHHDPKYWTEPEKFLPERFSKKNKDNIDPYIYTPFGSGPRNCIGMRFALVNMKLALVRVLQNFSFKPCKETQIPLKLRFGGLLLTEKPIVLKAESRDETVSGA

CYP4A11 (gene 1579) = experiment: LTEA_HepaRG_CYP4A11: Life Technologies and Expression Analysis (LTEA) Assay for CYP4A11 using HepaRG (AID 2283486)
Method in brief: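 Readout is CYP4A11 transcript level by qRT-PCR, normalized to three housekeeping genes and fitted bidirectionally against 0.5% DMSO. Human HepaRG cells were treated 48 h, in duplicate, with an 8-point half-log series topping at 100 uM.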

[1] = read-out: Cytochrome P450 3A4 (Homo sapiens) (UniProt P08684); experiment: LTEA_HepaRG_CYP3A4: Life Technologies and Expression Analysis (LTEA) Assay for CYP3A4 using HepaRG (AID 2283487)
Method in brief: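 Differentiated HepaRG cells, plated 48 h, then dosed 48 h in serum-free induction medium with 0.5% DMSO, 8 half-log concentrations up to 100 uM, duplicate. CYP3A4 mRNA by qRT-PCR, normalized to ACTB/GAPDH/POLR2A; bidirectional fit versus DMSO.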

[2] = read-out: DNA damage-inducible transcript 3 (DDIT3), DDIT3 (gene 1649); experiment: LTEA_HepaRG_DDIT3: Life Technologies and Expression Analysis (LTEA) Assay for DNA damage-inducible transcript 3 (DDIT3) using HepaRG (AID 2283488)
Method in brief: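 HepaRG plated 48 h, switched to serum-free induction medium, dosed 48 h (100 uM top, half-log, 8 pts, 0.5% DMSO, n=2); RNA isolated; DDIT3 by qRT-PCR; bidirectional curve fit vs DMSO.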

[3] = read-out: Pro-epidermal growth factor (Homo sapiens) (UniProt P01133); experiment: LTEA_HepaRG_EGF: Life Technologies and Expression Analysis (LTEA) Assay for Epidermal growth factor (EGF) using HepaRG (AID 2283489)
Method in brief: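 EGF transcript measured by Fluidigm TaqMan qRT-PCR with three housekeeping genes for normalization, 48 h after dosing HepaRG cultures in duplicate (top 100 uM, half-log steps, 0.5% DMSO vehicle). Gain or loss relative to DMSO fitted.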

[4] = read-out: Early growth response protein 1 (EGR1) transcription factor, EGR1 (gene 1958); experiment: LTEA_HepaRG_EGR1: Life Technologies and Expression Analysis (LTEA) Assay for Early growth response protein 1 (EGR1) transcription factor using HepaRG (AID 2283490)
Method in brief: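 Differentiated HepaRG cells in serum-free induction medium exposed 48 hours, duplicate, to 8 half-log concentrations up to 100 uM in 0.5% DMSO. EGR1 mRNA measured by TaqMan qRT-PCR, normalized to ACTB, GAPDH, POLR2A; bidirectional fit versus DMSO.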

[5] = read-out: Ezrin (EZR), EZR (gene 7430); experiment: LTEA_HepaRG_EZR: Life Technologies and Expression Analysis (LTEA) Assay for Ezrin (EZR) using HepaRG (AID 2283491)
Method in brief: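 EZR transcript levels came from Fluidigm qRT-PCR and were normalized to three housekeeping genes after 48 h chemical exposure of HepaRG cells. Dosing used an 8-point half-log series with a 100 uM top concentration in 0.5% DMSO, tested in duplicate; both directions were fitted versus vehicle.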

[6] = read-out: Cytochrome P450 3A7 (Homo sapiens) (UniProt P24462); experiment: LTEA_HepaRG_CYP3A7: Life Technologies and Expression Analysis (LTEA) Assay for CYP3A7 using HepaRG (AID 2283492)
Method in brief: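 CYP3A7 transcript measured by qRT-PCR (ACTB, GAPDH, POLR2A normalization) after 48 h chemical exposure of HepaRG cells in duplicate. Eight half-log concentrations, maximum 100 uM, 0.5% DMSO vehicle; bidirectional curve fitting against DMSO baseline.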

CYP3A5 (gene 1577) = experiment: LTEA_HepaRG_CYP3A5: Life Technologies and Expression Analysis (LTEA) Assay for CYP3A5 using HepaRG (AID 2283493)
Method in brief: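 HepaRG plated 48 h, switched to serum-free induction medium, chemicals added 48 h (max 100 uM, half-log, 0.5% DMSO). RNA isolated; CYP3A5 by TaqMan qRT-PCR. Gain/loss vs DMSO.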

[7] = read-out: Fatty Acid-Binding Protein 1 (FABP1), FABP1 (gene 2168); experiment: LTEA_HepaRG_FABP1: Life Technologies and Expression Analysis (LTEA) Assay for Fatty Acid-Binding Protein 1 (FABP1) using HepaRG (AID 2283494)
Method in brief: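 Differentiated human HepaRG cells exposed 48 h in serum-free induction medium to eight half-log concentrations up to 100 uM (0.5% DMSO), duplicate. FABP1 mRNA by qRT-PCR, normalised to ACTB, GAPDH, POLR2A; bidirectional fitting against DMSO.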

Measured: outcome

O=[N+]([O-])c1ccccc1[N+](=O)[O-]
inactive: all assays above

— PubChem BioAssay (EPA / NIEHS)
